uPA surface inh = blocks generation of uPA at the cell surface; Potency, µM (doses to about 38.3 µM), usual class: inhibitors; 0.31% of 330,000 active; cell surface uPA generation assay, qHTS; AID 540303; active means well fitted inhibition curve with a large enough effect; inconclusive means small, poorly fitted or top-dose-only effect; inactive means no such curve, though single readings can be large or run the other way; tested in mouse RAW 264.7 cells; further: nearly all actives have a fitted effect of over 55% in size
DT40 TDP1 no CPT = qHTS for Inhibitors of human tyrosyl-DNA phosphodiesterase 1 (TDP1): qHTS in cells in absence of CPT | DT40 Tdp1-/- hTDP1 cells, no CPT, ATP luminescence, 48 h | Potency, µM (series often up to 46.2 µM), actives largely listed as inhibitors | 15% of 420,000 active; further: nearly all actives have a fitted effect of over 55% in size
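Compound effects on proliferation are scored in DT40 Tdp1-/-;hTDP1 cells in the absence of CPT. ATP levels (CellTiter-Glo luminescence) are recorded after a ≥48 hr, 37 °C incubation.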
TDP1 block = blocks human tyrosyl-DNA phosphodiesterase 1; Q9NUW8; AID 485290; Potency, µM (top dose mostly 130 µM), usual class: inhibitors; 0.28% of 350,000 active; recombinant TDP1, AlphaScreen DNA substrate cleavage; further: nearly all actives have a fitted effect of over 40% in size
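AlphaScreen read-out: signal falls as enzyme removes the 3' tyrosine-FITC from a 5'-biotinylated DNA oligo (15 nM, 5 min, RT). Enzyme was E. coli-made recombinant Tdp1 at 1 nM, exposed to compound for 15 min beforehand; beads 10 ug/ml, 10 min.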
DT40 TDP1 CPT = growth inhibition of DT40 Tdp1-/-;hTDP1 cells with camptothecin (screen for TDP1 inhibitors). chicken DT40 Tdp1-/-;hTDP1 cells + 20 nM CPT, ATP luminescence, 48 h. Potency, µM (series often up to 46.2 µM), actives largely listed as inhibitors. 12% of 420,000 active. AID 686979; further: nearly all actives have a fitted effect of over 55% in size
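Cell growth measured by CellTiter-Glo luminescence after a minimum 48 h, 37 C compound exposure with 20 nM CPT in Tdp1-knockout DT40 cells stably expressing hTDP1, seeded 400/well; qHTS titration format.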
miR-21 reporter = miR-21 reporter, rising signal; HeLa miR-21 FLuc reporter, luciferase, 48 h; Potency, µM (top dose mostly 38.3 µM); 340,000 tested, under 10 active; active = well fitted rising curve with a large enough effect; inconclusive = small, poorly fitted or top-dose-only effect; inactive = no such curve, though single readings can be large or run the other way;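 further: miR-21 action dims this reporter so a rising signal means less miR-21 action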
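HeLa miR-21-FLuc reporter line, endogenous miR-21; 2000 cells/well in DMEM/10% FBS; compound titration up to ~40uM final, 48 h, 37 degree Celsius; luciferase detection reagent, 15 min lysis, CCD luminescence.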
Large screens that a line does not name were inactive. Sampled rows, rich in hits. Any-hit rate of the full collection: about 16%. Unless noted, the call rests on the fitted dose curve; in most records, active means well fitted curve in the direction sought with a large enough effect; inconclusive means small, poorly fitted or top-dose-only effect, or another doubt; inactive means no such curve, though single readings can be large; an effect the other way counts as inactive or inconclusive.

COc1ccc(OC)c(S(=O)(=O)Oc2ccc(N)c3ccccc23)c1	DT40 TDP1 no CPT 23µM, DT40 TDP1 CPT inconclusive (no result: TDP1 block, miR-21 reporter)
Cc1ccc(-c2ccc(C(=O)O)o2)cc1Cl	none
NC(=O)CC(NC(=O)c1ccc(Br)cc1)c1ccc(NC2CCCCCCC2)c([N+](=O)[O-])c1 (configuration not stated)	DT40 TDP1 no CPT 16µM, DT40 TDP1 CPT 16µM (no result: TDP1 block)
COc1ccc(CCNc2ccc(C(CC(N)=O)NC(=O)c3ccc(Br)cc3)cc2[N+](=O)[O-])cc1 (configuration not stated)	DT40 TDP1 no CPT 16µM, DT40 TDP1 CPT 23µM
NC(=O)CC(NC(=O)c1ccccc1)c1ccc(NC2CCCCCCC2)c([N+](=O)[O-])c1 (configuration not stated)	DT40 TDP1 no CPT 23µM, DT40 TDP1 CPT 23µM (no result: TDP1 block)
Cc1cc(C)cc(C(=O)NC(CC(N)=O)c2ccc(NC3CCCCCC3)c([N+](=O)[O-])c2)c1 (configuration not stated)	DT40 TDP1 no CPT inconclusive, DT40 TDP1 CPT inconclusive
COC(=O)[C@@H]1CC[C@H](C)[C@@H](c2ccc(C)cc2)N1C(=O)c1ccc(/C=N\O[C@@H]2O[C@H](COC(C)=O)[C@H](OC(C)=O)[C@H](OC(C)=O)[C@H]2OC(C)=O)cc1	none (no result: uPA surface inh, DT40 TDP1 no CPT, DT40 TDP1 CPT, miR-21 reporter)
CN(C)c1cc[n+](CC(=O)c2ccc(OC(F)F)cc2)cc1	DT40 TDP1 no CPT 8.2µM, DT40 TDP1 CPT 18µM
COc1ccccc1CN1CC(C(=O)N(C)CCCn2nc(C)cc2C)CCC1=O (configuration not stated)	none
Cc1ccc(NC(=O)CNc2ccc(OC(C)C)cc2)cc1	DT40 TDP1 no CPT 23µM, DT40 TDP1 CPT inconclusive
Cc1ccc(NC(=O)COCC(=O)Nc2ccc(C)cc2)cc1	none (no result: TDP1 block)
Cc1ccc(NC(=O)COCC(=O)Nc2ccc(F)cc2)cc1	uPA surface inh inconclusive, DT40 TDP1 no CPT 21µM, DT40 TDP1 CPT 18µM
O=c1c(-c2ccc(F)cc2)nc2cnc(N3CCOCC3)nc2n1CCc1ccccc1	none (no result: uPA surface inh, TDP1 block, miR-21 reporter)
CCOC(=O)CN(C(=O)CSc1nnc(-c2cccc(OC)c2)o1)c1ccc(F)cc1	DT40 TDP1 no CPT 16µM, DT40 TDP1 CPT inconclusive
CCOC(=O)CN(C(=O)CSc1nnc2c(n1)[nH]c1ccc(OC)cc12)c1ccc(F)cc1	DT40 TDP1 no CPT inconclusive, DT40 TDP1 CPT 21µM
COc1ccc(CN(C(=O)CSc2nnc(-c3ccccc3C)o2)c2ccc(F)cc2)cc1	DT40 TDP1 no CPT 23µM, DT40 TDP1 CPT inconclusive
O=C(CSc1nnc(-c2c[nH]c3ccccc23)o1)N(Cc1ccccc1)c1ccc(F)cc1	DT40 TDP1 no CPT inconclusive, DT40 TDP1 CPT inconclusive
COc1cccc(C(=O)O/N=C(\N)c2ccc([N+](=O)[O-])cc2)c1OC	DT40 TDP1 no CPT inconclusive
CC(C)(C)c1nn(-c2ccccc2)c2[nH]c(=O)c(CNc3ccc4c(c3)OCCO4)cc12	none
Cc1nn(-c2ccccc2)c2[nH]c(=O)c(CNc3ccc(N4CCOCC4)cc3)cc12	DT40 TDP1 no CPT 18µM, DT40 TDP1 CPT 18µM
Cc1nn(-c2ccc(Cl)cc2)c2[nH]c(=O)c(CNCc3ccc4c(c3)OCO4)cc12	DT40 TDP1 no CPT 18µM, DT40 TDP1 CPT 18µM
O=C(NCc1ccc2c(c1)OCO2)C1CC(=O)N(c2ccc(Cl)cc2)C1 (configuration not stated)	TDP1 block inconclusive
CC(=O)Nc1ccc(-c2csc(NC(=O)CCCc3cccs3)n2)cc1	none
CCc1ccc2[nH]c(=O)c(C(c3nnnn3CCOC)N3CCN(c4ccccc4)CC3)cc2c1 (configuration not stated)	DT40 TDP1 no CPT 18µM, DT40 TDP1 CPT inconclusive
COc1ccc2cc(C(c3nnnn3C3CCCC3)N3CCc4ccccc4C3)c(=O)[nH]c2c1 (configuration not stated)	DT40 TDP1 no CPT 18µM, DT40 TDP1 CPT inconclusive
Cc1cc2cc(C(c3nnnn3Cc3ccco3)N3CCc4ccccc43)c(=O)[nH]c2cc1C (configuration not stated)	DT40 TDP1 no CPT inconclusive, DT40 TDP1 CPT inconclusive

Compound activity deposited in PubChem BioAssay by National Center for Advancing Translational Sciences (NCATS).
